## AlphaSeq binding of Ab-95 light chain variants to a spike HR2 peptide

Source: Engelhart et al. 2022 (doi:10.1038/s41597-022-01779-4), MIT Lincoln Laboratory and A-Alpha Bio; data file from the FLAb repository.

Antigen: PDVDLGDISGINAS, a 14-residue peptide of the SARS-CoV-2 spike HR2 region.

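The parent was found by panning a naive human phage display library on the peptide. Variants in AAYL52 differ from the parent at up to three CDR positions; double and triple changes were sampled at random. AlphaSeq pools MATa yeast showing the antibodies with MATalpha yeast showing the peptide. The frequency of each diploid, read from paired DNA barcodes, reflects how well the two displayed proteins bind. The ratio of observed to expected reads was calibrated, replicate by replicate, on BCL2-family standards whose Kd was known from biolayer interferometry. Each pool was mated in three replicate cultures.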

The variants keep the heavy chain, the linker and the frameworks of Ab-95 (scFv order VH, the linker GGGGSGGGGSGGGGS, VL).
VH: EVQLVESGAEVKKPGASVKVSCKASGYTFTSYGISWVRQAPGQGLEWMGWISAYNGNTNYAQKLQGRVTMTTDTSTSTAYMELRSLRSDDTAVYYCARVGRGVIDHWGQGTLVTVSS
VL: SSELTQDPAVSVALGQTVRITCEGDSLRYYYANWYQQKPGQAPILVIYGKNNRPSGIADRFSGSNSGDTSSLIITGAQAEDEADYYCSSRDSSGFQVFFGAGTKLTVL

Each variant's VL is given in full. Values are log10 of the apparent Kd in nM; lower means stronger binding. Replicates are averaged; those with no signal do not enter the mean. "not detected" marks a missing value. The strain was present, yet no cells mated with the target were sequenced in any replicate, which points to weak or no binding. Three control strains display no target. For library AAYL52, 28% of the pairings with them gave a signal, with a median of 3.91 and one signal in twenty below 2.90, so weak values seen in few replicates may be background.

VL,"mean, log10 nM",seen in
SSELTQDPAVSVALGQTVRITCWGDSLRYYYAHWYQQKPGQAPILVIYGKNNRPSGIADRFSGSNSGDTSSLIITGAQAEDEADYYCSSRDWSGFQVFFGAGTKLTVL,3.40,1/3
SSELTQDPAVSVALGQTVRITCEGMSLRYYYANWYQQKPGQAPILVIYGKNNRPSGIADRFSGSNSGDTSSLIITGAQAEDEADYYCSSRDSSGGEVFFGAGTKLTVL,2.86,2/3
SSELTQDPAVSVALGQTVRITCEGDSLRYKYANWYQQKPGQAPILVIYGKNNRPVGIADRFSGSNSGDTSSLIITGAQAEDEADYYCSSRDSSGFQFFFGAGTKLTVL,1.63,3/3
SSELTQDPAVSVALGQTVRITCEGDSLRYYYANWYQQKPGQAPILVIYGKNNRVSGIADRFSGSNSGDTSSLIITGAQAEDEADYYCSSRASSVFQVFFGAGTKLTVL,2.77,3/3
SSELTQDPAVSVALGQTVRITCEGDGIRYYYAFWYQQKPGQAPILVIYGKNNRPSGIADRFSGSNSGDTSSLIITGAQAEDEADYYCSSRDSSGFQVFFGAGTKLTVL,not detected,0/3
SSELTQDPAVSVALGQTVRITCEGDSLHTYYANWYQQKPGQAPILVIYGKNNRPSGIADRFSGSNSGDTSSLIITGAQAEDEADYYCSSRDSSGFQGFFGAGTKLTVL,2.73,2/3
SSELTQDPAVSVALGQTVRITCEGDVLRYYYANWYQQKPGQAPILVIYGKNNRPSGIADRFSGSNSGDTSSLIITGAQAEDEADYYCSSQSSSGFQVFFGAGTKLTVL,3.52,2/3
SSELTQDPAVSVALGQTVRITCRGDSLRYYYANWYQQKPGQAPILVIYDKNNRPSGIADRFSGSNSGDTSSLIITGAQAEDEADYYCSSRDSSGFVVFFGAGTKLTVL,1.65,3/3
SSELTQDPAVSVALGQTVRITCEGDILRYYYANWYQQKPGQAPILVIYWKNNRPSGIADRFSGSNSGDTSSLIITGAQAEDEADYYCSSRDSSGFQVFFGAGTKLTVL,not detected,0/3
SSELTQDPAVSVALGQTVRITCEGDSLRYYYNNWYQQKPGQAPILVIYGKNNRPSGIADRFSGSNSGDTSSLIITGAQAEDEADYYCSSRDKSGFQVFFGAGTKLTVL,2.38,3/3

Continued, with the values leading:

"mean, log10 nM",seen in,VL
3.19,2/3,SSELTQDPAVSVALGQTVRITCEGDSLRYYKANWYQQKPGQAPILVIYGKNNRPSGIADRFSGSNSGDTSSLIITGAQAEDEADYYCSSRDSSWFQWFFGAGTKLTVL
3.50,2/3,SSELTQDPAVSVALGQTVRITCEGDSLRYYYANWYQQKPGQAPILVIYGHNNRYSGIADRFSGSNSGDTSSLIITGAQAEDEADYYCSSRDISGFQVFFGAGTKLTVL
not detected,0/3,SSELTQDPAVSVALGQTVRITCEGDWLRYFYANWYQQKPGQAPILVIYWKNNRPSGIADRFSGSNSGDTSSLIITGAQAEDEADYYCSSRDSSGFQVFFGAGTKLTVL
4.50,3/3,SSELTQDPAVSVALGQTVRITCEGDDLMYYYANWYQQKPGQAPILVIYGKNNRPSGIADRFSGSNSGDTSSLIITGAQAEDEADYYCSSRDCSGFQVFFGAGTKLTVL
4.67,2/3,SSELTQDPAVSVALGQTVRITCEGDSLRYYYANWYQQKPGQAPILVIYGKTNTPSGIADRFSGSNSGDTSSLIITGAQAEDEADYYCSSRDSSGHQVFFGAGTKLTVL
2.28,3/3,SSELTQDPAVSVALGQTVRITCGGDSLRYYYANWYQQKPGQAPILVIYGKNYRSSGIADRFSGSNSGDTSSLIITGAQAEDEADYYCSSRDSSGFQVFFGAGTKLTVL
2.83,3/3,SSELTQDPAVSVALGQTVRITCEGDSLREYDKNWYQQKPGQAPILVIYGKNNRPSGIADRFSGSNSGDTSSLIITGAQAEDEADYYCSSRDSSGFQVFFGAGTKLTVL
2.58,3/3,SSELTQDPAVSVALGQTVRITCEGDSLRYYYANWYQQKPGQAPILVIYGKNNRPSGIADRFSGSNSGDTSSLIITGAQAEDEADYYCSCYDSSGFQVWFGAGTKLTVL
3.63,3/3,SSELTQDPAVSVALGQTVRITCEGDSLRIYYANWYQQKPGQAPILVIYGKNNRPCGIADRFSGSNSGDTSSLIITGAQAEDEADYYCSVRDSSGFQVFFGAGTKLTVL
1.78,3/3,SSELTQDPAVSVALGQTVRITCHGDSLRYYYANWYQQKPGQAPILVIYGKNNRPSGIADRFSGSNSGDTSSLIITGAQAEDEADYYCSSRFHSGFQVFFGAGTKLTVL

From the list, the first 2 with no signal in any replicate:

| VL | mean, log10 nM | seen in |
|---|---|---|
| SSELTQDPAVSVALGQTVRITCEGDGIRYYYAFWYQQKPGQAPILVIYGKNNRPSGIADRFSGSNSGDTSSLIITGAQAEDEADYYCSSRDSSGFQVFFGAGTKLTVL | not detected | 0/3 |
| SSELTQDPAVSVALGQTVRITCEGDILRYYYANWYQQKPGQAPILVIYWKNNRPSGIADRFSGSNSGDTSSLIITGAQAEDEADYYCSSRDSSGFQVFFGAGTKLTVL | not detected | 0/3 |